# Laboratory results: ChEMBL document CHEMBL1148385, “Synthesis and opioid activity of side-chain-to-side-chain cyclic dynorphin A-(1-11) amide analogues cyclized between positions 2 and 5. 1. Substitutions in position 3” (J Med Chem, 2004)
# Tests used:
# Assay type in all cases: protein assay
# [1] = test system: opioid receptors kappa/mu (Rattus norvegicus), delta (Mus musculus); test: Compound was evaluated for opioid receptor selectivity, expressed as Ki ratio (kappa/mu/delta); 1/2.3/28
# [2] = test system: opioid receptors kappa/mu (Rattus norvegicus), delta (Mus musculus); test: Compound was evaluated for opioid receptor selectivity, expressed as Ki ratio (kappa/mu/delta); 1/27/108
# [3] = test system: opioid receptors kappa/mu (Rattus norvegicus), delta (Mus musculus); test: Compound was evaluated for opioid receptor selectivity, expressed as Ki ratio (kappa/mu/delta); 7.2/1/53
# [4] = test system: opioid receptors kappa/mu (Rattus norvegicus), delta (Mus musculus); test: Compound was evaluated for opioid receptor selectivity, expressed as Ki ratio (kappa/mu/delta); 1/1.6/5320
# [5] = test system: opioid receptors kappa/mu (Rattus norvegicus), delta (Mus musculus); test: Compound was evaluated for opioid receptor selectivity, expressed as Ki ratio (kappa/mu/delta); 1.5/1/228
# [6] = test system: opioid receptors kappa/mu (Rattus norvegicus), delta (Mus musculus); test: Compound was evaluated for opioid receptor selectivity, expressed as Ki ratio (kappa/mu/delta); 1/2.3/64
# [7] = test system: opioid receptors kappa/mu (Rattus norvegicus), delta (Mus musculus); test: Compound was evaluated for opioid receptor selectivity, expressed as Ki ratio (kappa/mu/delta); 1/3.6/645
# [8] = test system: opioid receptors kappa/mu (Rattus norvegicus), delta (Mus musculus); test: Compound was evaluated for opioid receptor selectivity, expressed as Ki ratio (kappa/mu/delta); 1/2.5/692
# [9] = test system: opioid receptors kappa/mu (Rattus norvegicus), delta (Mus musculus); test: Compound was evaluated for opioid receptor selectivity, expressed as Ki ratio (kappa/mu/delta); 1/3.2/422
# [10] = test system: opioid receptors kappa/mu (Rattus norvegicus), delta (Mus musculus); test: Compound was evaluated for opioid receptor selectivity, expressed as Ki ratio (kappa/mu/delta); 1/18/662
# [11] = test system: opioid receptors kappa/mu (Rattus norvegicus), delta (Mus musculus); test: Compound was evaluated for opioid receptor selectivity, expressed as Ki ratio (kappa/mu/delta); 1/14/>1000
# [12] = test system: opioid receptors kappa/mu (Rattus norvegicus), delta (Mus musculus); test: Compound was evaluated for opioid receptor selectivity, expressed as Ki ratio (kappa/mu/delta); 1/8.5/199
compound,measurement,setting,value
CC[C@H](C)[C@H](NC(=O)[C@H](CCCN=C(N)N)NC(=O)[C@H](CCCN=C(N)N)NC(=O)[C@H]1CNC(=O)C[C@@H](NC(=O)[C@@H](N)Cc2ccc(O)cc2)C(=O)N[C@@H](C)C(=O)N[C@H](Cc2ccccc2)C(=O)N1)C(=O)N[C@@H](CCCN=C(N)N)C(=O)N1CCC[C@H]1C(=O)N[C@@H](CCCCN)C(N)=O,Ki ratio,[1],kappa/mu/delta
CC[C@H](C)[C@H](NC(=O)[C@H](CCCN=C(N)N)NC(=O)[C@H](CCCN=C(N)N)NC(=O)[C@H](CC(C)C)NC(=O)[C@H](Cc1ccccc1)NC(=O)[C@H](Cc1c[nH]c2ccccc12)NC(=O)CNC(=O)[C@@H](N)Cc1ccc(O)cc1)C(=O)N[C@@H](CCCN=C(N)N)C(=O)N1CCC[C@H]1C(=O)N[C@@H](CCCCN)C(N)=O,Ki ratio,[2],kappa/mu/delta
CC[C@H](C)[C@H](NC(=O)[C@H](CCCN=C(N)N)NC(=O)[C@H](CCCN=C(N)N)NC(=O)[C@H](CN)NC(=O)[C@H](Cc1ccccc1)NC(=O)CNC(=O)[C@@H](CC(=O)O)NC(=O)[C@@H](N)Cc1ccc(O)cc1)C(=O)N[C@@H](CCCN=C(N)N)C(=O)N1CCC[C@H]1C(=O)N[C@@H](CCCCN)C(N)=O,Ki ratio,[3],kappa/mu/delta
CC[C@H](C)[C@H](NC(=O)[C@H](CCCN=C(N)N)NC(=O)[C@H](CCCN=C(N)N)NC(=O)[C@H]1CNC(=O)C[C@@H](NC(=O)[C@@H](N)Cc2ccc(O)cc2)C(=O)N[C@@H](Cc2c[nH]c3ccccc23)C(=O)N[C@H](Cc2ccccc2)C(=O)N1)C(=O)N[C@@H](CCCN=C(N)N)C(=O)N1CCC[C@H]1C(=O)N[C@@H](CCCCN)C(N)=O,Ki ratio,[4],kappa/mu/delta
CC[C@H](C)[C@H](NC(=O)[C@H](CCCN=C(N)N)NC(=O)[C@H](CCCN=C(N)N)NC(=O)[C@H](CN)NC(=O)[C@H](Cc1ccccc1)NC(=O)[C@@H](C)NC(=O)[C@@H](CC(=O)O)NC(=O)[C@@H](N)Cc1ccc(O)cc1)C(=O)N[C@@H](CCCN=C(N)N)C(=O)N1CCC[C@H]1C(=O)N[C@@H](CCCCN)C(N)=O,Ki ratio,[5],mu/kappa/delta
CC[C@H](C)[C@H](NC(=O)[C@H](CCCN=C(N)N)NC(=O)[C@H](CCCN=C(N)N)NC(=O)[C@H](CN)NC(=O)[C@H](Cc1ccccc1)NC(=O)[C@H](C)NC(=O)[C@@H](CC(=O)O)NC(=O)[C@@H](N)Cc1ccc(O)cc1)C(=O)N[C@@H](CCCN=C(N)N)C(=O)N1CCC[C@H]1C(=O)N[C@@H](CCCCN)C(N)=O,Ki ratio,[6],kappa/mu/delta
CC[C@H](C)[C@H](NC(=O)[C@H](CCCN=C(N)N)NC(=O)[C@H](CCCN=C(N)N)NC(=O)[C@H](CN)NC(=O)[C@H](Cc1ccccc1)NC(=O)[C@@H](Cc1c[nH]c2ccccc12)NC(=O)[C@@H](CC(=O)O)NC(=O)[C@@H](N)Cc1ccc(O)cc1)C(=O)N[C@@H](CCCN=C(N)N)C(=O)N1CCC[C@H]1C(=O)N[C@@H](CCCCN)C(N)=O,Ki ratio,[7],kappa/mu/delta
CC[C@H](C)[C@H](NC(=O)[C@H](CCCN=C(N)N)NC(=O)[C@H](CCCN=C(N)N)NC(=O)[C@H](CN)NC(=O)[C@H](Cc1ccccc1)NC(=O)[C@H](Cc1c[nH]c2ccccc12)NC(=O)[C@@H](CC(=O)O)NC(=O)[C@@H](N)Cc1ccc(O)cc1)C(=O)N[C@@H](CCCN=C(N)N)C(=O)N1CCC[C@H]1C(=O)N[C@@H](CCCCN)C(N)=O,Ki ratio,[8],kappa/mu/delta
CC[C@H](C)[C@H](NC(=O)[C@H](CCCN=C(N)N)NC(=O)[C@H](CCCN=C(N)N)NC(=O)[C@H]1CNC(=O)C[C@@H](NC(=O)[C@@H](N)Cc2ccc(O)cc2)C(=O)N[C@H](Cc2c[nH]c3ccccc23)C(=O)N[C@H](Cc2ccccc2)C(=O)N1)C(=O)N[C@@H](CCCN=C(N)N)C(=O)N1CCC[C@H]1C(=O)N[C@@H](CCCCN)C(N)=O,Ki ratio,[9],kappa/mu/delta
CC[C@H](C)[C@H](NC(=O)[C@H](CCCN=C(N)N)NC(=O)[C@H](CCCN=C(N)N)NC(=O)[C@H]1CNC(=O)C[C@@H](NC(=O)[C@@H](N)Cc2ccc(O)cc2)C(=O)N[C@H](C)C(=O)N[C@H](Cc2ccccc2)C(=O)N1)C(=O)N[C@@H](CCCN=C(N)N)C(=O)N1CCC[C@H]1C(=O)N[C@@H](CCCCN)C(N)=O,Ki ratio,[10],kappa/mu/delta
CC[C@H](C)[C@H](NC(=O)[C@H](CCCN=C(N)N)NC(=O)[C@H](CCCN=C(N)N)NC(=O)[C@H]1CNC(=O)C[C@@H](NC(=O)[C@@H](N)Cc2ccc(O)cc2)C(=O)N2CCC[C@H]2C(=O)N[C@H](Cc2ccccc2)C(=O)N1)C(=O)N[C@@H](CCCN=C(N)N)C(=O)N1CCC[C@H]1C(=O)N[C@@H](CCCCN)C(N)=O,Ki ratio,[11],kappa/mu/delta
CC[C@H](C)[C@H](NC(=O)[C@H](CCCN=C(N)N)NC(=O)[C@H](CCCN=C(N)N)NC(=O)[C@H](CC(C)C)NC(=O)[C@H](Cc1ccccc1)NC(=O)[C@@H](Cc1c[nH]c2ccccc12)NC(=O)CNC(=O)[C@@H](N)Cc1ccc(O)cc1)C(=O)N[C@@H](CCCN=C(N)N)C(=O)N1CCC[C@H]1C(=O)N[C@@H](CCCCN)C(N)=O,Ki ratio,[12],kappa/mu/delta
